## scFv variants of Ab-95 (light chain) against a SARS-CoV-2 spike peptide

The measurements come from Engelhart et al. 2022 (doi:10.1038/s41597-022-01779-4) through the FLAb antibody collection.

Target: peptide PDVDLGDISGINAS, taken from heptad repeat 2 (HR2) of SARS-CoV-2 spike.

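In library AAYL52, one, two or three CDR residues were substituted; doubles and triples were drawn at random. In AlphaSeq, yeast of one mating type display the scFv and yeast of the other type display the target. The frequency of each diploid, read from paired DNA barcodes, reflects how well the two displayed proteins bind. A regression on co-assayed BCL2-family reference pairs converts the normalised counts of each replicate to an apparent Kd. Each pool was mated in three replicate cultures.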

Ab-95 is the parent antibody, in scFv form: VH, then a 15-residue (Gly4Ser)3 linker, then VL. The heavy chain is unchanged in all variants.
VH: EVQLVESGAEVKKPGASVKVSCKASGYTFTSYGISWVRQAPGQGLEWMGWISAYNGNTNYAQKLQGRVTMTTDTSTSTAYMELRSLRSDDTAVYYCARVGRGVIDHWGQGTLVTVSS
VL: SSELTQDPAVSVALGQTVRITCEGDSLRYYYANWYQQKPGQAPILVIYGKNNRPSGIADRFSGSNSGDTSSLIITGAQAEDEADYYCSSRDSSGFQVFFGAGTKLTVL

The whole VL of each variant is written out.
Scale: log10 of Kd in nM, estimated from mating counts; low values are strong binders.
A mean of the replicates is given; it leaves out those without a signal.
An entry "n.d." has no value in the source: the pair was not observed among the diploids in that replicate. This suggests poor binding but is not conclusive.
As a blank, each scFv also met three strains without target: over library AAYL52, 28% of these pairings were detected, typically at 3.91 and seldom below 2.90.

"log10 Kd, replicates","mean, log10 nM",VL
3.98 / n.d. / n.d.,3.98,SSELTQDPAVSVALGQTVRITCERPSLRYYYANWYQQKPGQAPILVIYGKNNRPSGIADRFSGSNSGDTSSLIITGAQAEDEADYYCSSRDSSMFQVFFGAGTKLTVL
5.73 / 5.25 / 4.16,5.05,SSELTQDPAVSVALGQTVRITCEGDSLRYYYANWYQQKPGQAPILVIYGKNNRDSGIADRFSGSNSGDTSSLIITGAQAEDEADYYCSSFDSHGFQVFFGAGTKLTVL
1.15 / 1.68 / 0.67,1.17,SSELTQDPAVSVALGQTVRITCEGDSLRYHYANWYQQKPGQAPILVIYGKNNRPWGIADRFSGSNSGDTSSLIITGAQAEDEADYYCSSRDSSGEQVFFGAGTKLTVL
3.22 / 3.46 / 3.20,3.29,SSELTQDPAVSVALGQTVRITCEGYSLRYYYANWYQQKPGQAPILVIYGTNLRPSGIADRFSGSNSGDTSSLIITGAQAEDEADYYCSSRDSSGFQVFFGAGTKLTVL
4.04 / 3.33 / 4.26,3.88,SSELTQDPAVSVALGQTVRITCEGDSLRYYYANWYQQKPGQAPILVIYCKNNRPSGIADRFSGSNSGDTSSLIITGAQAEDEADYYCSSDDSSGFDVFFGAGTKLTVL
2.12 / 2.90 / 2.32,2.45,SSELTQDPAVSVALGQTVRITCEGDSLRYYNANWYQQKPGQAPILVIYGKKNRPSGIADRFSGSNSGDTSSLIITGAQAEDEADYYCSSRDSSGWQVFFGAGTKLTVL
3.08 / 3.48 / 4.42,3.66,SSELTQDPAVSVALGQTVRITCEGDSLRYYYAAWYQQKPGQAPILVIYGKNNRPQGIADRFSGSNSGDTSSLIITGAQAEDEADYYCSSRDSSGDQVFFGAGTKLTVL
3.58 / n.d. / 4.58,4.08,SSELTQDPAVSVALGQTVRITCKGDSLRYYYYGWYQQKPGQAPILVIYGKNNRPSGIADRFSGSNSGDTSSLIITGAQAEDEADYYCSSRDSSGFQVFFGAGTKLTVL
2.71 / n.d. / n.d.,2.71,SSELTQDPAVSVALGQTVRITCEGMSLRYYYANWYQQKPGQAPILVIYGYNNRPSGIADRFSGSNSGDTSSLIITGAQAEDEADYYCSSRDSSGFQCFFGAGTKLTVL
5.51 / 5.64 / n.d.,5.58,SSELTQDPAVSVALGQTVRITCEGDSLRYYYANWYQQKPGQAPILVIYSKNARPSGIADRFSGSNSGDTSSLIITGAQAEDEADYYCSHRDSSGFQVFFGAGTKLTVL
2.62 / 2.11 / 2.85,2.52,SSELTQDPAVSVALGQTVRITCEGDSLRYYYANWYQQKPGQAPILVIYGKNNRPSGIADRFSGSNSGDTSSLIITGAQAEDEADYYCGSRHSSGFQVFFGAGTKLTVL
3.22 / 2.76 / n.d.,2.99,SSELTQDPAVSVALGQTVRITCEGDSLRYYYANWYQQKPGQAPILVIYGKNNRQSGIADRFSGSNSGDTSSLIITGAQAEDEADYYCSSRDSSIFDVFFGAGTKLTVL
2.34 / 2.85 / 2.32,2.50,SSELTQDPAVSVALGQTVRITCEGDSLHYYYANWYQQKPGQAPILVIYGKNNRPSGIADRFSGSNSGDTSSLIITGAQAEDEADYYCSSRDSSGFFVFFGAGTKLTVL
3.52 / 4.30 / 2.98,3.60,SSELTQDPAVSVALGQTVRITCEGDSLGYYYANWYQQKPGQAPILVIYGKNNGPSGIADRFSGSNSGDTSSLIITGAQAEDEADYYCSSRDRSGFQVFFGAGTKLTVL
4.55 / n.d. / n.d.,4.55,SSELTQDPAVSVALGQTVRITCEGDSLRYYYYGWYQQKPGQAPILVIYGKNNVPSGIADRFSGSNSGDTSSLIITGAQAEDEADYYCSSRDSSGFQVFFGAGTKLTVL
3.37 / n.d. / n.d.,3.37,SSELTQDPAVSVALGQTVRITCEGDSLRYYYNNWYQQKPGQAPILVIYHKNNRPSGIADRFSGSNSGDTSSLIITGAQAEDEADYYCSSNDSSGFQVFFGAGTKLTVL
2.33 / 2.08 / 1.83,2.08,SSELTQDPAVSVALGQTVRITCEGDSLRYYYANWYQQKPGQAPILVIYGKNNRVSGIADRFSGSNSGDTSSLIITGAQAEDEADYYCSSRDSSGIQNFFGAGTKLTVL
1.67 / 1.56 / 1.47,1.56,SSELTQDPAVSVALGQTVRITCEGDSLRYGYANWYQQKPGQAPILVIYGKNNRPSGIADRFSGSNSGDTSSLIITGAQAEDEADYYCSSRPSSSFQVFFGAGTKLTVL
1.97 / 1.63 / 1.17,1.59,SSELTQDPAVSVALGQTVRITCEGDSLRGYYGNWYQQKPGQAPILVIYGKNNRPSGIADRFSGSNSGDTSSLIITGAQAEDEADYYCSSRASSGFQVFFGAGTKLTVL
n.d. / n.d. / n.d.,n.d.,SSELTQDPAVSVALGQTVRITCEGDSLRYYVANWYQQKPGQAPILVIYSKNNRPSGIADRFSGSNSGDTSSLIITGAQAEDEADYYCSSRDSYGFQVFFGAGTKLTVL
3.22 / 2.15 / 4.25,3.21,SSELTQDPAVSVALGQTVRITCEGDSLRYYYANWYQQKPGQAPILVIYGKNNRPCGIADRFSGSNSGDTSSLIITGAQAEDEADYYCSSWDNSGFQVFFGAGTKLTVL
n.d. / n.d. / n.d.,n.d.,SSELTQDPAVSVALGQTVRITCEGDSLRYYYALWYQQKPGQAPILVIYGKNNRPSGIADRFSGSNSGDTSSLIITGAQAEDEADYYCSSRDSSGSQVFFGAGTKLTVL
3.24 / 2.88 / 2.70,2.94,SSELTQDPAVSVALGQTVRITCEGDSLRYYYANWYQQKPGQAPILVIYHHNNRPSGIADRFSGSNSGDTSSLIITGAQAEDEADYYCSSRDSSGFQVFFGAGTKLTVL

A selection of 4 entries from above:

{"VL": "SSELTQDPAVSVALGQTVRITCKGDSLRYYYYGWYQQKPGQAPILVIYGKNNRPSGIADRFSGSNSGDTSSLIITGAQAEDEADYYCSSRDSSGFQVFFGAGTKLTVL", "log10 Kd, replicates": "3.58 / n.d. / 4.58", "mean, log10 nM": "4.08"}
{"VL": "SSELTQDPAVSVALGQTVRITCEGDSLRGYYGNWYQQKPGQAPILVIYGKNNRPSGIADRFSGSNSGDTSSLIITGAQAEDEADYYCSSRASSGFQVFFGAGTKLTVL", "log10 Kd, replicates": "1.97 / 1.63 / 1.17", "mean, log10 nM": "1.59"}
{"VL": "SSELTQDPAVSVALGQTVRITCEGDSLRYYYANWYQQKPGQAPILVIYGKNNRDSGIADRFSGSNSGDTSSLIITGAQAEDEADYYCSSFDSHGFQVFFGAGTKLTVL", "log10 Kd, replicates": "5.73 / 5.25 / 4.16", "mean, log10 nM": "5.05"}
{"VL": "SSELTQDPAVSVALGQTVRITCEGDSLRYYYALWYQQKPGQAPILVIYGKNNRPSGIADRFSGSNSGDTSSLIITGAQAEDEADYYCSSRDSSGSQVFFGAGTKLTVL", "log10 Kd, replicates": "n.d. / n.d. / n.d.", "mean, log10 nM": "n.d."}